## Measured affinities in a library of Ab-14 heavy chain variants

Target peptide (SARS-CoV-2 spike, HR2 region): PDVDLGDISGINAS

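The library (AAYL49) carries one to three amino acid substitutions per variant, with no insertions or deletions. Affinity was read by AlphaSeq, a pooled yeast mating assay with surface-displayed partners. After mating in shaken culture at 30 °C for 16 h, diploids were selected and their barcode pairs sequenced. Scores were corrected for input abundance and mapped to Kd with protein pairs of known affinity run in the same pool. Mating was done three times.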

The variants keep the light chain, the linker and the frameworks of Ab-14 (scFv order VH, a 15-residue (Gly4Ser)3 linker, VL).
VH: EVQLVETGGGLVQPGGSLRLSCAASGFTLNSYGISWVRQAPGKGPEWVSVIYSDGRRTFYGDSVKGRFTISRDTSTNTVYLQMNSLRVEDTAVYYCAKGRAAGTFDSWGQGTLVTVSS
VL: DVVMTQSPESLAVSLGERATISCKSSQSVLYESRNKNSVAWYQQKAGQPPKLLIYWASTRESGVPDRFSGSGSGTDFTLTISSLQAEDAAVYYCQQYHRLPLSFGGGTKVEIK

The parent's heavy chain CDRs are GFTLNSYGIS, VIYSDGRRTFYGDSVK, GRAAGTFDS; each variant's own CDRs replace them letter for letter.
The Kd shown is the geometric mean over detected replicates; a lower Kd is a better binder.
Where no diploid with the target was found in any replicate, the entry reads "not detected": below detection, most likely a poor binder, though not proof of it.
Parent in this assay: reference entry 4.4 nM, copy in this library 13 µM (one replicate of three).

| Kd (apparent) | seen in | CDR-H1 | CDR-H2 | CDR-H3 |
|---|---|---|---|---|
| 800 nM | 1/3 | GFTLNSQGIS | VIYSDGRRTEYGDSVK | GRAAGHFDS |
| not detected | 0/3 | GMTLNSYGIS | VQYSDGRRTFYGDSVK | GRAAGTFDS |
| 140 µM | 2/3 | KFTLNSYGIS | VIYSDGRRFFYGKSVK | GRAAGTFDS |
| 200 µM | 2/3 | GFTLNSYGIS | VIYSDIRRTFYGDSVK | GRAAFTFHS |
| 370 nM | 2/3 | GFTLNLYGIS | VIYSDGRRTFYGDMFK | GRAAGTFDS |
| not detected | 0/3 | GFTLSSYGIT | VIYDDGRRTFYGDSVK | GRAAGTFDS |
| not detected | 0/3 | GFVSNSYGIS | VCYSDGRRTFYGDSVK | GRAAGTFDS |
| 180 µM | 1/3 | GFTLNSYGLS | VIYSNGRRTFYGDSVK | GRAAGTFDN |
| 6.5 µM | 3/3 | GTWLNSYGIS | VIYSDGRRTFYGDSVK | GIAAGTFDS |
| 42 µM | 3/3 | DFTLNSYGIS | VIYSDGRREFYGTSVK | GRAAGTFDS |
| 2.0 µM | 2/3 | GFTLNSRGIS | VIYGDGRRTFYGDSVK | GFAAGTFDS |
| 27 µM | 1/3 | GFTLNSYGIS | YIYSDGARTFYYDSVK | GRAAGTFDS |
| 140 µM | 3/3 | GFTLNSYGIP | VIYNDGRRTFYGDSVK | GRAASTFDS |
| 17 µM | 1/3 | GFTGNSYGIL | VIYMDGRRTFYGDSVK | GRAAGTFDS |
| 180 µM | 2/3 | GFTLNSYGYS | VIYSDGRRTFYGDSVK | GCAAGTFDA |
| not detected | 0/3 | GGTLNSYGIS | VIYSDGRRTMYGDSVP | GRAAGTFDS |
| 44 µM | 1/3 | GFTLNSYGIS | VIYSDGRITFYGDSVQ | GRAAGTTDS |
| 100 µM | 2/3 | GFPLNSYHIY | VIYSDGRRTFYGDSVK | GRAAGTFDS |
| not detected | 0/3 | GFTLNSYGIK | VIYSDVRRTFYGDSVK | GRAAGTFDS |
| 28 µM | 2/3 | GFTLCSYGIS | IISSDGRRTFYGDSVK | GRAAGTFDS |
| not detected | 0/3 | GFTLNSYGIS | VIYIDGRRTFYGDSVK | GRAADTFDS |
| not detected | 0/3 | GFTLNSFGIS | VIYSDGRRTKYGDSVK | GRAAGTFCS |
| not detected | 0/3 | GFTLNSYGIL | VIYSDGRRTFYDDSVK | GRAKGTFDS |
| not detected | 0/3 | GFTLNSYGIS | VPYSDGRRTWYGDSSK | GRAAGTFDS |
| not detected | 0/3 | GFTLNSYGIS | VIYSQGRRTFYGDSVD | TRAAGTFDS |
| not detected | 0/3 | GFTLNSYGIS | CIISDGVRTFYGDSVK | GRAAGTFDS |
| not detected | 0/3 | GFTLNSYGIS | VCYSDGRRTFYGDSVK | GRATGTFDS |
| 640 µM | 1/3 | GFFLNSYIIS | VISSDGRRTFYGDSVK | GRAAGTFDS |
| not detected | 0/3 | GFTLNSYGVS | VIYSDARRTFYGDSVE | GRAAGTFDS |
| 25 µM | 2/3 | GFTLNSYGIS | VQYSDGRRTFLGDSVK | GVAAGTFDS |
| 25 nM | 3/3 | GNTLYDYGIS | VIYSDGRRTFYGDSVK | GRAAGTFDS |
| 160 µM | 2/3 | GFTLNSYGIS | VCYSDGRRTFYGDSVG | GRFAGTFDS |
| not detected | 0/3 | GFTLNSYGLS | VIYSDGRRTFYGDSVK | GRAAGTFVQ |
| not detected | 0/3 | GFTHNSYGIS | VIYSDGRRTFDFDSVK | GRAAGTFDS |
| not detected | 0/3 | GFLLNPYGIS | VIYSDGRRTFYGDSCK | GRAAGTFDS |
| not detected | 0/3 | GFTLNWYGIS | VIYSDGRRTSYGDSVK | FRAAGTFDS |
| not detected | 0/3 | GFPLQSYGID | VIYSDGRRTFYGDSVK | GRAAGTFDS |
| not detected | 0/3 | WFTLNSYGIS | VWYSDGRRTFYGDSVK | GRAAGTFRS |
| 940 nM | 1/3 | GSTLNSYGSS | VITSDGRRTFYGDSVK | GRAAGTFDS |
| not detected | 0/3 | GATLNSYGIS | VACSDGRRTFYGDSVK | GRAAGTFDS |
| not detected | 0/3 | GFTLNSYGIS | VIYLDGRRTFYGDSVK | LRAAGTFMS |
| 13 nM | 3/3 | GFTLNSYGIS | VIYSDGRRTFYGDSVK | GRAEGAFDS |
| not detected | 0/3 | GFPLNSYGQS | VIYTDGRRTFYGDSVK | GRAAGTFDS |
| not detected | 0/3 | GFHLNSYGIS | WIYSDGRRRFYGDSVK | GRAAGTFDS |
| not detected | 0/3 | GFTLNSIGIS | VIYSDGRRTFYGLSVK | GRAANTFDS |
| 19 µM | 2/3 | GFTNNSYGIS | VIYSDGRMTFYGDSVK | GRAAGTFDA |
| not detected | 0/3 | GFTLNCYGIS | VISSDGRRTFYGDSVK | GRAAGTFDN |
| 200 µM | 1/3 | FFTLNSYGIS | VIKSDGRRTFYGDSVK | GRAGGTFDS |
| not detected | 0/3 | GITLNSYGIS | VIYSDGRRTFFGDSVK | GRAAGWFDS |
| 3.4 µM | 2/3 | GFTLNSYGIS | VILSDGRRTFYGDSVK | GRDAGTNDS |
| not detected | 0/3 | GFTLNSYGIS | VIRSDGRMTFYGDSVK | GRAFGTFDS |
| not detected | 0/3 | GFTLNSYGIS | VIYSDRRDTFYGLSVK | GRAAGTFDS |
| 12 µM | 3/3 | GFTLNSYRIS | EIYSDGRRTFYGDSVN | GRAAGTFDS |
| not detected | 0/3 | GFTLNNYGIN | VIYSDGRRTFYGTSVK | GRAAGTFDS |
| 1.9 µM | 1/3 | GFVLNSYGIS | VIYSDLRRTFYGDSVK | GRAAGEFDS |
| 8.5 µM | 1/3 | GFTLNSYAIS | VIYSDGYRTFYKDSVK | GRAAGTFDS |
| 170 µM | 1/3 | GFTLNSYGIS | VIYSSYRRMFYGDSVK | GRAAGTFDS |
| 19 µM | 1/3 | GFTYNSYGIS | HIYSDGRRTFYGDSVK | LRAAGTFDS |
| 82 µM | 1/3 | IPTLNSYGIS | VTYSDGRRTFYGDSVK | GRAAGTFDS |
| 19 µM | 2/3 | DFTLNSYGIS | NIYSDGRWTFYGDSVK | GRAAGTFDS |
| 44 µM | 1/3 | KFTFNSYGIS | VIYSDGRLTFYGDSVK | GRAAGTFDS |
| not detected | 0/3 | GFTLNSYGIS | VIYSDGRRTFYGDMVK | GVAAGSFDS |
| not detected | 0/3 | GFTLNSYGIS | VIYSDGHYTFYGDSVK | GRAAGTFDS |
| 26 nM | 3/3 | GFLLTSYGIS | VIYSDGRRTFYGDHVK | GRAAGTFDS |
| not detected | 0/3 | GFTLNSYGIS | VIYSDHRRTFYGYSEK | GRAAGTFDS |
| 14 µM | 1/3 | GFTLNSYGIS | VIYSDIRPTFYGDSVK | GRAADTFDS |
| 690 nM | 3/3 | GFTLNSYGIS | VIYSDARRRFYGDSVK | GRTAGTFDS |

For reference, 6 entries of the list once more:

{"CDR-H1": "GFPLNSYHIY", "CDR-H2": "VIYSDGRRTFYGDSVK", "CDR-H3": "GRAAGTFDS", "Kd (apparent)": "100 µM", "seen in": "2/3"}
{"CDR-H1": "GFTLNSIGIS", "CDR-H2": "VIYSDGRRTFYGLSVK", "CDR-H3": "GRAANTFDS", "Kd (apparent)": "not detected", "seen in": "0/3"}
{"CDR-H1": "KFTLNSYGIS", "CDR-H2": "VIYSDGRRFFYGKSVK", "CDR-H3": "GRAAGTFDS", "Kd (apparent)": "140 µM", "seen in": "2/3"}
{"CDR-H1": "GFTNNSYGIS", "CDR-H2": "VIYSDGRMTFYGDSVK", "CDR-H3": "GRAAGTFDA", "Kd (apparent)": "19 µM", "seen in": "2/3"}
{"CDR-H1": "GFTLNSYGIS", "CDR-H2": "VIYSDARRRFYGDSVK", "CDR-H3": "GRTAGTFDS", "Kd (apparent)": "690 nM", "seen in": "3/3"}
{"CDR-H1": "GATLNSYGIS", "CDR-H2": "VACSDGRRTFYGDSVK", "CDR-H3": "GRAAGTFDS", "Kd (apparent)": "not detected", "seen in": "0/3"}

Nonspecific signal, from three strains lacking the peptide, appeared in 15% of pairings of library AAYL49, centred on 11 µM (5% of these signals below 680 nM); values are not corrected for it.

Source: Engelhart et al. 2022 (doi:10.1038/s41597-022-01779-4), MIT Lincoln Laboratory and A-Alpha Bio; data file from the FLAb repository.